Data from patent publication US20110110945A1, “Immunoglobulin Fusion Proteins and Methods of Making” (TransTech Pharma, Inc., priority 2007, published 2011).
Read-outs that look alike come from different tables or passages of the source. Marks after values point to notes of the source that are not given here.

Experiments:
[1] = test system: male C57BL/6 mice, cerebral ischemia/reperfusion; assay: Animal model of stroke (ischemia and reperfusion, infarct volume); assay type: in vivo, mouse; details: dose not given; just prior to reperfusion; compared to saline
Method: Also, fusion proteins of the present invention comprising a RAGE ligand binding site may be used to treat atherosclerosis and other cardiovascular disorders such as stroke. […] In this model, the middle carotid artery of a mouse is ligated and then reperfused to form an infarct. To assess the efficacy of RAGE fusion proteins to treat or prevent stroke, mice were treated with sRAGE or TTP-4000 or control immunoglobulin just prior to reperfusion.
TTP-4000 was also compared to sRAGE in a disease relevant animal model of stroke. In this model, the middle carotid artery of a mouse was ligated for 1 hour followed by 23 hours of reperfusion at which point the mice were sacrificed and the area of the infarct in the brain was assessed. […]
Mice were injected intraperitoneally, 1 hour after the initiation of ischemia. […] After the nylon suture had been in place for 1 hour, the animal was re-anesthetized, rectal temperature was recorded and the suture was removed and the incision closed.
Infarct volume was determined by anesthetizing the animals with an intraperitoneal injection of sodium pentobarbital (50 mg/kg) and then removing the brains. […] The infarct area in each section was determined with a computer-assisted image analysis system, consisting of a Power Macintosh computer equipped with a Quick Capture frame grabber card, Hitachi CCD camera mounted on a camera stand. […]

[2] = cited from earlier work; for half-life in plasma: plasma (human plasma)

## sRAGE: soluble RAGE: N-terminal extracellular domain of RAGE comprised of the V and C domains
[1]
  % Reduction of Infarct: 15%*
[2]; assessed by retention of immunoreactivity sRAGE
  half-life: less than 2 hours
[2]
  half-life in plasma: only a few hours
[2]; listed as human sRAGE
  half-life in plasma: about 2 hours
